{
  "source": "patent USRE38551E1",
  "about": "“Anticonvulsant enantiomeric amino acid derivatives” (priority 1996, dated 2004)",
  "tested_on": "Crl:CD BR Charles River rats",
  "protocol": "II. Five groups of Crl:CD® BR Charles River rats were each exposed to BAMP or a control substance (0.5% methylcellulose [400 Cps] aqueous solution in distilled water) according to the following dosage schedule:\nGroup 1—vehicle control (10 males, 10 females), 0 mg/kg/day\nGroup 2—low (10 males, 10 females), 10 mg/kg/day\nGroup 3—mid low (10 males, 10 females), 30 mg/kg/day\nGroup 4—mid high (10 males, 10 females), 100 mg/kg/day\nGroup 5—high (10 males, 10 females), 300 mg/kg/day\nExposure was by oral gavage, once daily, for a period of at least 30 consecutive days, after which all animals were sacrificed for pathologic evaluation.\nAll animals were weighed once prior to initiation of dosing and weekly thereafter. Food-fasted (overnight) blood samples for clinical chemistry and hematology were collected at termination. Blood samples were collected from the orbital venous plexus using carbon dioxide (mixed with oxygen) as an anesthetic.\nAll animals were sacrificed, at the appropriate time, by exsanguination, under barbiturate anesthesia, and all were subjected to a necropsy examination.\nClinical observations were reviewed at necropsy, and all grossly observed abnormalities were entered directly into the computerized data collection system. Adrenals, brain with brainstem, heart, kidneys, liver, ovaries, pituitary, testes with epididymides, and thyroid with parathyroids were weighted from each animal. The pituitary and thyroid with parathyroids were weighed after fixation and all of the other organs were weighed at the time of necropsy.\nAs required by the protocol, histologic evaluations were conducted on liver only from all animals of Groups 1 (control) and 5 (high). All histologic findings were entered directly into the computerized data capture system. Lesions were graded as to relative severity or degree of involvement (1=minimal, 2=slight, 3=moderate, 4=moderately severe, 5=severe). In general, minimal represents the least consistently recognizable degree of any given histoniorphologic alteration, while severe would represent the most extreme degree reasonably possible, with the other three grades occupying a continuum between the two extremes. The grades are subjective, comparative evaluations, based on morphology alone and are not intended by themselves to imply any degree of functional impairment.",
  "note": "Like-named read-outs stand apart in the source and are kept apart here. Marks after values point to notes of the source that are not given here.",
  "data": [
    {"smiles": "COC[C@@H](NC(C)=O)C(=O)NCc1ccccc1", "note": "[Ex. 1, 2, (R)-N-Benzyl-2-Acetamide-3-methoxypropionamide]", "values": [
      {"measurement": "LIVER ORGAN WEIGHT, mean", "setting": "female, group 2, 10 mg/kg/day, 30 days oral", "result": 6.91, "unit": "g"},
      {"measurement": "LIVER ORGAN WEIGHT, mean", "setting": "female, group 3, 30 mg/kg/day, 30 days oral", "result": 6.71, "unit": "g"},
      {"measurement": "LIVER ORGAN WEIGHT, mean", "setting": "female, group 4, 100 mg/kg/day × 30 days oral", "result": "7.88* g"},
      {"measurement": "LIVER ORGAN WEIGHT, mean", "setting": "female, group 5, 300 mg/kg/day × 30 days oral", "result": "7.88* g"},
      {"measurement": "LIVER ORGAN WEIGHT, mean", "setting": "male, group 2, 10 mg/kg/day, 30 days oral", "result": 11.10, "unit": "g"},
      {"measurement": "LIVER ORGAN WEIGHT, mean", "setting": "male, group 3, 30 mg/kg/day, 30 days oral", "result": 11.48, "unit": "g"},
      {"measurement": "LIVER ORGAN WEIGHT, mean", "setting": "male, group 4, 100 mg/kg/day × 30 days oral", "result": 11.79, "unit": "g"},
      {"measurement": "LIVER ORGAN WEIGHT, mean", "setting": "male, group 5, 300 mg/kg/day × 30 days oral", "result": "14.45* g"}
    ]}
  ]
}
